# Antibody variant affinities, Ab-95 light chain, assay 2

Target: peptide PDVDLGDISGINAS, taken from heptad repeat 2 (HR2) of SARS-CoV-2 spike.

Ab-95 is the parent antibody, in scFv form: VH, then three GGGGS repeats, then VL. The heavy chain is unchanged in all variants.
VH: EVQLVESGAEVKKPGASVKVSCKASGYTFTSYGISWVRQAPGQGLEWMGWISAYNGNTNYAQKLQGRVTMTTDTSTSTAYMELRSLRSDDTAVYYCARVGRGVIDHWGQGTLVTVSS
VL: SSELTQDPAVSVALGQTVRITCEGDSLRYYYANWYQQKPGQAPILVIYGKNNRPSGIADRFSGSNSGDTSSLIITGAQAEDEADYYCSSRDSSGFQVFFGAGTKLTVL

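Phage display of a naive human antibody library on the peptide gave the parent. The library (AAYL52) carries one to three amino acid substitutions per variant, with no insertions or deletions. The assay is AlphaSeq: two haploid yeast populations carry antibody and antigen on their surface. Binding brings cells together so that they mate, and sequencing counts the barcode pairs among the diploids. Each replicate has its own calibration line, from reference interactions of the BCL2 family. The assay was run in three technical replicates.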

Each variant is given by its three light chain CDRs, as the data file delimits them; those of the parent are EGDSLRYYYAN, GKNNRPS, SSRDSSGFQVF.
Values are log10 of the apparent Kd in nM; lower means stronger binding.
"ND" marks a missing value. The strain was present, yet no cells mated with the target were sequenced in that replicate, which points to weak or no binding.
Three control strains display no target. For library AAYL52, 28% of the pairings with them gave a signal, with a median of 3.91 and one signal in twenty below 2.90, so weak values seen in few replicates may be background. Also given: how often the same scFv was detected with the empty control strains, with their mean in brackets.

| # | CDR-L1 | CDR-L2 | CDR-L3 | log10 Kd, replicates | empty controls |
|---|---|---|---|---|---|
| 1 | EGESLRYYYAN | CKNYRPS | SSRDSSGFQVF | 5.11 5.54 ND | 2/9 (4.06) |
| 2 | EGDSLSYFYAN | GKNNRPS | SSRDWSGFQVF | 2.89 3.26 2.87 | 3/9 (4.38) |
| 3 | EGDSLRYYYAN | GKNGRPS | SSRESSGFQVF | ND 2.74 2.32 | 3/9 (3.69) |
| 4 | EGWSLMYYYLN | GKNNRPS | SSRDSSGFQVF | ND ND ND | 2/9 (4.00) |
| 5 | ERDSLREYYAN | GKINRPS | SSRDSSGFQVF | ND ND ND | 3/9 (3.54) |
| 6 | EGDSLRRYYAN | GKNNLPS | SSRDSSGFEVF | 3.73 3.44 2.72 | 2/9 (3.61) |
| 7 | EGDSLRYYYAN | GKNMRPS | SSRDSTGFQLF | 1.99 3.38 3.65 | 1/9 (3.28) |
| 8 | PGFSLRYYYAN | GKNNRPS | SSRDSSGFQTF | ND ND ND | 4/9 (4.57) |
| 9 | EGDCLRYYYAN | HKLNRPS | SSRDSSGFQVF | 4.25 ND ND | 2/9 (4.08) |
| 10 | EGDSLRPYYAN | PKNNRPC | SSRDSSGFQVF | 2.93 ND ND | 2/9 (4.55) |
| 11 | EGYSLRYYYAN | GKNNRPS | CSRDSSGFQVG | 3.67 2.62 1.89 | 0/9 |
| 12 | EGDMLRMYYAN | GKNNRPS | DSRDSSGFQVF | ND ND ND | 0/9 |
| 13 | EGDSPRYYYAN | GKNGRPS | SSRDSYGFQVF | 3.48 4.73 3.65 | 4/9 (3.63) |
| 14 | EGDSLRYYYAN | LKNNRPS | PSRDSSGFQVD | 3.91 3.14 3.79 | 3/9 (3.75) |
| 15 | EGDSLAYTYAN | GKMNRPS | SSRDSSGFQVF | 2.81 2.43 2.35 | 3/9 (4.16) |
| 16 | EGDSSRYYYAN | GKNNRPS | SSRNSSGFQVH | 4.92 5.58 4.28 | 2/9 (4.44) |
| 17 | EGDSLRYYYAN | GHNNRMF | SSRDSSGFQVF | 3.12 3.41 2.19 | 0/9 |
| 18 | EGDSLRYYYAN | GKNNRPS | ASMDSSGGQVF | 2.27 2.56 2.59 | 3/9 (4.17) |
| 19 | EGDSLVYYTAN | GKNNRPS | SSRASSGFQVF | 3.07 3.37 2.98 | 6/9 (3.93) |
| 20 | EGDSLRYYYAN | GKNNRPS | SSVGSSMFQVF | 2.05 1.68 1.58 | 2/9 (4.15) |
| 21 | EGDSLRYYLAN | GKNNRPS | SSTDSSGMQVF | 3.02 3.41 2.16 | 5/9 (3.73) |
| 22 | EGLSLRYYYAN | GKNNRPS | SYRDSSGFQVF | ND 4.20 ND | 0/9 |
| 23 | EGDSLRYYYAN | GKNNRPS | DSDDSSGFQVQ | ND ND ND | 3/9 (5.22) |
| 24 | EGDSARYYYAN | GKNNEPS | SSRMSSGFQVF | ND ND ND | 2/9 (4.72) |
| 25 | EGDSLRYYRAN | GKNNRPD | SSRDSSMFQVF | 3.46 3.44 4.50 | 3/9 (3.67) |
| 26 | EGDSLRYYYIN | GKNNIPS | SSWDSSGFQVF | 3.63 ND ND | 0/9 |
| 27 | EGDSLRYYYIN | GKRIRPS | SSRDSSGFQVF | 4.08 4.86 2.30 | 5/9 (3.84) |
| 28 | ESDSLRYYYAN | GKNNNPS | SSRDSPGFQVF | ND 4.75 ND | 3/9 (4.16) |
| 29 | EGDSLRYAYAN | GKNNRPS | SSRDSSGFYVE | 1.74 1.51 0.97 | 2/9 (5.08) |
| 30 | EGDSLRGYYAN | GKNNRPS | SSRDSSGFQVF | 1.10 0.96 0.61 | 3/9 (4.41) |
| 31 | EGDSFRMEYAN | GKNNRPS | SSRDSSGFQVF | 2.50 2.24 2.41 | 1/9 (5.03) |
| 32 | EGDSLGYYYAG | GKNNRPS | SHRDSSGFQVF | ND ND 4.46 | 1/9 (3.54) |
| 33 | EGDSLRYYYAQ | GKNNRPS | SSRDSSRFCVF | 4.98 ND ND | 2/9 (3.73) |
| 34 | EGDSLRVYYAN | GKNNRMS | SVRDSSGFQVF | 3.88 ND 4.40 | 2/9 (3.78) |
| 35 | EGDPLRYYYAN | PKNNRPS | SSRDSSGFQDF | ND 4.16 ND | 0/9 |
| 36 | EGDSLRYYTAN | GKNNRPS | SSRDSSQFQVF | 5.60 3.88 ND | 0/9 |
| 37 | EGDSLRYYYAL | GKNNRPS | SSRDSSGSQVF | ND ND ND | 0/9 |
| 38 | EGWSLRYYLAN | GKNNRPS | SSRDSSPFQVF | ND ND ND | 3/9 (4.69) |
| 39 | EGDQLRYYYAN | GKNNRPS | HSRDSSGFQVF | 4.40 ND ND | 2/9 (3.97) |
| 40 | EGDSLRYYYAN | GKNNRPS | SHRDSSGFNVC | 4.72 2.86 3.09 | 4/9 (3.72) |
| 41 | EGDSLRYYYAN | GKNNTPS | SFRDSSGFQVK | 4.08 4.19 4.61 | 4/9 (4.01) |
| 42 | EGDHLRYYYAN | GKNVRPI | SSRDSSGFQVF | 2.91 2.63 2.94 | 0/9 |
| 43 | EGDSLRYYYAN | QKNNRPS | SSRDSSDFIVF | ND ND ND | 2/9 (4.02) |
| 44 | ETDSLRYYYAN | DKNNRPH | SSRDSSGFQVF | ND 5.87 ND | 3/9 (3.93) |
| 45 | EGDSLRYYYAN | GKGNRPS | SHRDSSGFQVF | 3.23 1.86 1.39 | 1/9 (3.54) |
| 46 | EGDSLRQYYAN | GKNNRPS | SSFDSSGFIVF | 2.07 2.27 2.58 | 3/9 (3.60) |
| 47 | EGDSLRYYYAN | YKWNNPS | SSRDSSGFQVF | ND ND ND | 0/9 |

Top 5 of the variants detected in all replicates, tightest first:

CDR-L1	CDR-L2	CDR-L3	log10 Kd, replicates	empty controls
EGDSLRGYYAN	GKNNRPS	SSRDSSGFQVF	1.10 0.96 0.61	3/9 (4.41)
EGDSLRYAYAN	GKNNRPS	SSRDSSGFYVE	1.74 1.51 0.97	2/9 (5.08)
EGDSLRYYYAN	GKNNRPS	SSVGSSMFQVF	2.05 1.68 1.58	2/9 (4.15)
EGDSLRYYYAN	GKGNRPS	SHRDSSGFQVF	3.23 1.86 1.39	1/9 (3.54)
EGDSLRQYYAN	GKNNRPS	SSFDSSGFIVF	2.07 2.27 2.58	3/9 (3.60)

The measurements come from Engelhart et al. 2022 (doi:10.1038/s41597-022-01779-4) through the FLAb antibody collection.